{
  "sequences": {"note": "Chains of the proteins cited; added tags and fusions are not shown. Residues count along the entry.", "UniProt P01116, 1-188 isoform 2 G12D": "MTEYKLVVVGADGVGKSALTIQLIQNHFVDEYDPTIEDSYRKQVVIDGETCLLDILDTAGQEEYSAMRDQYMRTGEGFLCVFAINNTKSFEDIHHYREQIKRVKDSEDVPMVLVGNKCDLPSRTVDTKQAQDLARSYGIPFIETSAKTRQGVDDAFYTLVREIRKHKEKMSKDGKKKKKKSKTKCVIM"},
  "source": "patent US20240166669A1",
  "about": "“QUINAZOLINE AMINE DERIVATIVES AS KRAS INHIBITORS” (Nikang Therapeutics, Inc., priority 2021, published 2024)",
  "target": "K-Ras G12D (Homo sapiens, UniProt P01116, G12D)",
  "experiment": "p-ERK Cellular 2-Plate Assay (Biological Example 2)",
  "settings": "read-out: AGS PERK EC50; AGS cells (KRAS G12D), 3 h treatment, AlphaLISA p-ERK1/2, 2-plate; Biological Example 2 (unmarked values); tested form: mixture of the two enantiomers (6aS,7aR)",
  "method": "The ability of the compound of Formula (IIA′), (II′), or (II) or a pharmaceutically acceptable salt thereof (test compound) to inhibit K-Ras G12D activity was tested using AGS (Cobioer, CBP60476) cell lines which harbor KRAS G12D mutation as described below.\nAGS (Cobioer, CBP60476) were seeded in 384-well plates and cultured overnight (10.000 cells per well 40 μl total volume). The following morning, cells were treated with test compound, with staring concentration at 10 μM and 3-fold dilution down to 0.5 nM for 3 h at 37° C., DMSO treatment served as control. p-ERK was then measured using AlphaLISA SureFire Ultra p-ERK1/2 (Thr202/Tyr204) Assay Kit (Perkin Elmer, cat #ALSU-PERK) following the manufacturer's instruction as follows.\nBriefly, the culture medium was removed and 20 μl 1× lysis buffer was added to each well, followed by 30 minutes incubation on a plate shaker at room temperature. Then 10 μl of lysate was transferred to a white 384-well plate. Acceptor mixture was prepared according to manufacturer's instruction. 5 μl acceptor mixture was added to the cell lysate and the plate was wrapped with foil, spun at 500 rpm for 10 s, and incubated at RT for 60 min. Donor mixture was prepared under subdued light. […] Signal was then measured on a EnVision 2105 multimode plate reader. […]",
  "data": [
    {"smiles": "C#Cc1c(F)ccc2cccc(-c3ncc4c(N5C[C@H]6CC[C@@H](C5)N6)nc(OC[C@]56CCCN5[C@H]5c7ccccc7OC[C@H]5C6)nc4c3F)c12", "values": [
      {"measurement": "EC50", "result": 19, "unit": "nM"}
    ]}
  ]
}
